Literature values in patent EP3494999A1, “PSMA LIGANDS FOR IMAGING AND ENDORADIOTHERAPY” (Technische Universität München, priority 2017, dated 2019).

Sequences of proteins named here, by UniProt entry; tags and fusion partners are left off. Residues count along the entry.
UniProt P02768, 25-609: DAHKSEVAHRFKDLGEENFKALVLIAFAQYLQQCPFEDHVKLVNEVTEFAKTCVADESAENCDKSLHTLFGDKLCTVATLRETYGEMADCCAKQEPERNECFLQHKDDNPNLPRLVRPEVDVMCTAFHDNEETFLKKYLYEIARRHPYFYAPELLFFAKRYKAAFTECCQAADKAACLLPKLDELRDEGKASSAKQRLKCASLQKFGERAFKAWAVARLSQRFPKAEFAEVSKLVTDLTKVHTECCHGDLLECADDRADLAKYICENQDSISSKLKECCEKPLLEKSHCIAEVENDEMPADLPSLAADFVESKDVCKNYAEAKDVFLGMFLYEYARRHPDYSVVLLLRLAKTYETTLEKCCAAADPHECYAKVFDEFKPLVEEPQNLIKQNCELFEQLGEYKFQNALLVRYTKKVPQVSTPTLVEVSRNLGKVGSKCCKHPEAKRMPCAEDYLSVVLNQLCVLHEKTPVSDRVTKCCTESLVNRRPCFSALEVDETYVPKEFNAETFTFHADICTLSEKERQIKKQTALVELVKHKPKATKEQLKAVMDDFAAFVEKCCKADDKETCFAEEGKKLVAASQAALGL

Target: human serum albumin (Homo sapiens, UniProt P02768)
Details: literature value of human serum albumin binding (Valko et al. or Yamazaki et al.); cited from earlier work

p-benzylalcohol
Lit. HSA%: 13.15%
